We go through four substances from patent US20070203098A1, “Pten Inhibitors” (priority 2004, published 2007).

The chains behind the UniProt entries cited, without tags or fusion partners. Where a name states a change or a piece, a line headed by the entry shows the natural chain unless it says otherwise.
UniProt P18031: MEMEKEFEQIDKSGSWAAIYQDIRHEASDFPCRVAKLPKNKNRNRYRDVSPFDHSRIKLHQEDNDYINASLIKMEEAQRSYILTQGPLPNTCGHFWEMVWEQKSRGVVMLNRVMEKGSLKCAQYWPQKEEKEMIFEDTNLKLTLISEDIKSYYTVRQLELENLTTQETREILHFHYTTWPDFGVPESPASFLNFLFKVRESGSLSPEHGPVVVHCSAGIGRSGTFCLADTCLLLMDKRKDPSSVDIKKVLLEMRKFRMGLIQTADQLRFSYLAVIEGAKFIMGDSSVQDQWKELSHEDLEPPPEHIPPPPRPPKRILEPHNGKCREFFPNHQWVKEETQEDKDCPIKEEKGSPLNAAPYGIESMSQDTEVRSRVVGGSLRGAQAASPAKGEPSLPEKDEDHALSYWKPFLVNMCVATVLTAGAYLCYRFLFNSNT
UniProt P60484: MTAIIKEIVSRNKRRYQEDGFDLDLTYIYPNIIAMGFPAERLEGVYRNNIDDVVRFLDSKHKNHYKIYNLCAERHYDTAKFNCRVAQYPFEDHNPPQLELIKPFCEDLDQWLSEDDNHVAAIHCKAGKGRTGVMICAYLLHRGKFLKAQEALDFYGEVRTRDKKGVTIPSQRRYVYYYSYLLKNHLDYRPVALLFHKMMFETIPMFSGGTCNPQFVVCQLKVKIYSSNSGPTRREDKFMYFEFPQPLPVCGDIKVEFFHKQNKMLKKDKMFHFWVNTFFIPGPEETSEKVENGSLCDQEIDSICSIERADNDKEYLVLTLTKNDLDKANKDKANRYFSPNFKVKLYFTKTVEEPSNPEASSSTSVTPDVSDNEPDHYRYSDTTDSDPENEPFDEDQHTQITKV

The target of assay [1] is T1, PTP1B (Homo sapiens, UniProt P18031). The note with it: read-out: PTP1B, ImperialCollege; substrate pNPP; cited from earlier work.
Another assay deals with MEF PTEN null. Put plainly: Migration Assay, MEF PTEN null. The assay is classed as cell-based, mouse. To be noted: Table 4.
Assay [2] addresses T2, PTEN (Homo sapiens, UniProt P60484). Put plainly: PTEN Inhibition Assay: IC50 Determinations. The assay is classed as biochemical.
Assay [3] concerns the target T2, PTEN. To be noted: read-out: PTEN, ImperialCollege; substrate PtdIns(3, 4, 5)P3; cited from earlier work.
Another assay relates to MEF PTEN wt. Put plainly: Migration Assay, MEF PTEN wt. The assay is classed as cell-based, mouse. To be noted: Table 4.
The target in assay [4] is T2, PTEN. Put plainly: PTEN Inhibition Assay: General Screening. The assay is classed as biochemical. To be noted: Table 10 vanadates.
Assay [5] has as its target T1, PTP1B. Briefly: PTP1B Inhibition Assay: IC50 Determinations. The assay is classed as biochemical.
A further assay has as its system mouse aortic ring. Briefly: In Vitro Aortic Ring Angiogenesis Assay. The assay is classed as cell-based. To be noted: 5 μM; 5 days.
[6] abbreviates: read-out: PTEN, Semafore Pharmaceuticals, substrate PtdIns(3, 4, 5)P3, Triplicate.
Setting [7] is: read-out: PTP1B, Semafore Pharmaceuticals, substrate (Glu4Tyr[P])2, triplicate.
[8] abbreviates: read-out: PTP1B, Semafore Pharmaceuticals, substrate pNPP, triplicate.

Read-outs that look alike come from different tables or passages of the source.

As to “Dipotassium Bisperoxo (5-hydroxypyridine-2- carboxyl)oxovanadate (V)”, the IC50 is 25.3 µM at PTP1B [1]; 0.091 µM on PTEN [2] (read-out: PTEN IC50, Table 29); 0.033 µM at PTEN [2] (read-out: PTEN Inhibition IC50, Table 1); 0.0911 µM at PTEN [2] (setting [6]); 0.014 µM at PTEN [3]; 0.045 µM at PTP1B [5] (read-out: PTP1B IC50, Table 29). Further, the results for the IC50 on PTP1B [5] (setting [7]) and at PTP1B [5] (setting [8]) were 0.045 µM and 0.0795 µM, respectively. In addition, the “migration number, Average” value was determined as 40.50 in the assay with MEF PTEN null (125 uM), 43.70 in the assay on MEF PTEN null (250 uM), 13.50 with MEF PTEN wt (125 uM) and 13.90 with MEF PTEN wt (250 uM). Also, the “% Inh. @ 250 uM in PTEN Assay” value at PTEN [4] is 98-97.2%. In addition, the “Branch (% of control)” value in the assay with mouse aortic ring is 164-198 % of control. Further, the “Stem (% of control)” value with mouse aortic ring is given as 164-201 % of control.
For “Dipotassium Bisperoxo (picolinato)oxovanadate (V)”, the IC50 is 61 µM at PTP1B [1]; 0.111 µM on PTEN [2] (read-out: PTEN IC50, Table 29); 0.111 µM on PTEN [2] (setting [6]); 0.031 µM on PTEN [3]; 0.082 µM on PTP1B [5] (read-out: PTP1B IC50, Table 29); 0.082 µM on PTP1B [5] (setting [7]). The IC50 at PTP1B [5] (setting [8]) was 0.146 µM. Moreover, the “% Inh. @ 250 uM in PTEN Assay” value on PTEN [4] worked out at 98.1%.
For the substance “Potassium Bisperoxo (1,10-phenanthroline) oxovanadate (V)”, the IC50 at PTP1B [1] is 0.92 µM; at PTEN [2] (read-out: PTEN IC50, Table 29) it was 0.357 µM; at PTEN [2] (setting [6]), 0.357 µM; at PTEN [3], 0.038 µM; on PTP1B [5] (read-out: PTP1B IC50, Table 29) it was 0.084 µM; on PTP1B [5] (setting [7]), 0.084 µM. Further, the IC50 on PTP1B [5] (setting [8]) was 0.0754 µM. In addition, on PTEN [4], the “% Inh. @ 250 uM in PTEN Assay” value is 100.4%.
With “Potassium Bisperoxo(bipyridine)oxovanadate (V)”, the IC50 was 0.164 µM at PTP1B [1]; 0.276 µM on PTEN [2] (read-out: PTEN IC50, Table 29); 0.276 µM at PTEN [2] (setting [6]); 0.018 µM on PTEN [3]; 0.103 µM at PTP1B [5] (read-out: PTP1B IC50, Table 29); 0.103 µM at PTP1B [5] (setting [7]). In addition, the “% Inh. @ 250 uM in PTEN Assay” value on PTEN [4] is 94.7%.
